From ChEMBL document CHEMBL5143749, “Discovery of Insulin/GLP-1/Glucagon Triagonists for the Treatment of Diabetes and Obesity” (ACS Med Chem Lett, 2022)

The chains behind the UniProt entries cited, without tags or fusion partners.
UniProt P43220, whole entry: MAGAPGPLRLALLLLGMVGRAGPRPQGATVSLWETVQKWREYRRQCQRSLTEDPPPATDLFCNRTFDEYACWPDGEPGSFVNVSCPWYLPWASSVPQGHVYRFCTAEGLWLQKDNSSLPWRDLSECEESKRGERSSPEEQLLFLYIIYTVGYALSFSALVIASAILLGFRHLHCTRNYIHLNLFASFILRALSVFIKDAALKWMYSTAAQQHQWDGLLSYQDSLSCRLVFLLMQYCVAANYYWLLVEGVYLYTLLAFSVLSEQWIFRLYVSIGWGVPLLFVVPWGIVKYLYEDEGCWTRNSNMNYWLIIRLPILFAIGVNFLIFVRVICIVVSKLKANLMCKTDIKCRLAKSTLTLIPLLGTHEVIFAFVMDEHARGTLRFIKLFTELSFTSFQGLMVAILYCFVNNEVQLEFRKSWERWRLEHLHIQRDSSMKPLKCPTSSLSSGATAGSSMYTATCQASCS

Target: Glucagon-like peptide 1 receptor (Homo sapiens, UniProt P43220)
Assay: Agonist activity at human GLP1R expressed in frozen cells assessed as measuring the cAMP level incubated for 1 hr by HitHunter chemiluminescence based assay
Type: functional, cell-based

EC50: 48 pM
Structure (SMILES): CCCCCCCCCCCCCCCC(=O)N[C@@H](CCC(=O)N[C@@H](CCC(=O)NCCCC[C@H](NC(=O)[C@H](CC(=O)O)NC(=O)[C@H](CO)NC(=O)[C@@H](NC(=O)[C@H](Cc1ccccc1)NC(=O)[C@@H](NC(=O)CNC(=O)[C@H](CCC(N)=O)NC(=O)[C@@H](CO)NC(=O)[C@@H](N)Cc1c[nH]cn1)[C@@H](C)O)[C@@H](C)O)C(=O)N[C@@H](CO)C(=O)N[C@@H](CCCCN)C(=O)N[C@@H](Cc1ccc(O)cc1)C(=O)N[C@@H](CC(C)C)C(=O)N[C@@H](CC(=O)O)C(=O)N[C@@H](CCC(=O)O)C(=O)N[C@@H](CCCNC(=N)N)C(=O)N[C@@H](C)C(=O)N[C@@H](C)C(=O)N[C@@H](CCC(N)=O)C(=O)N[C@@H](CC(=O)O)C(=O)N[C@@H](Cc1ccccc1)C(=O)N[C@H](C(=O)N[C@@H](CCCCN=[N+]=[N-])C(=O)N[C@@H](Cc1c[nH]c2ccccc12)C(=O)N[C@@H](CC(C)C)C(=O)N[C@@H](CC(C)C)C(=O)N[C@@H](CC(=O)O)C(=O)N[C@H](C(N)=O)[C@@H](C)O)C(C)C)C(=O)O)C(=O)O
